Assay results published in PMC6270119, “Application of Reductive ^13C-Methylation of Lysines to Enhance the Sensitivity of Conventional NMR Methods” (Molecules, 2013).

How the values were obtained:
[1] = target: fully post-translationally modified (farnesylated and methylated) hypervariable region peptide of K-Ras4B (human); assay: ITC; CaM in the syringe titrated into the peptide (FM-HVR or HVR) in the 1.4 mL cell; 25 °C; 50 mM Tris-citrate pH 6.5, 50 mM NaCl, 5 mM MgCl2, 1 mM TCEP, 10 mM CaCl2; 1 mM CaM into 70 µM HVR, 33 µM CaM into 2.9 µM FM-HVR; one set of binding sites model
[2] = target: hypervariable region (HVR) peptide of K-Ras4B, non-modified (human); assay: as above

- Kd [1]: 350 nM
- dH [1]: -14.9 kcal/mol
- dH [2]: 0.65 kcal/mol
Substance: calmodulin (from UniProt P0DP23 2-149) (natural protein)
